Test results reported in PubChem BioAssay AID1235 (PCMD, 2008).
The list shows a part of the results, in another mix than the full data. Active and inactive are the calls of the source.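 How the source made its calls: active means inhibition above 30% in each of the two pooled mixtures holding the compound, so the lower value exceeds 30%; inactive means the rest.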

Experiment: blockers of serum C3 deposition on LPS – biochemical, ELISA, human serum, orthogonally pooled compounds, primary screen (AID 1235);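 further: 0% = serum in Mg-EGTA without compound and 100% = EDTA serum blank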
Details: Human serum alternative complement pathway, LPS-coated ELISA, tested in compound mixtures, at 5 µM, active compounds read high
How it was run: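 Assay system: human serum alternative complement pathway, C3 deposition on LPS-coated wells; Dosing: 5 µM per compound in ten-compound mixtures; Detection: Anti-C3 ELISA, OD 450 nm; Buffer or medium: Mg2+-EGTA GVB++ buffer containing human serum at 1:15 dilution; Timing: 1 h at 37 °C; Replication: two different pools per compound.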

SMILES	inhibition
CP(=O)(Oc1ccccc1)N1CCOC1=O (stereo not drawn)	inactive: 3.95%
COc1ccccc1OP(C)(=O)Nc1c(C)n(C)n(-c2ccccc2)c1=O (stereo not drawn)	inactive: -13.6%
CCN(CC)CC(O)COC(=O)C(O)(c1ccccc1)C1CCCCC1 (stereo not drawn)	inactive: 2.46%
COc1ccccc1OP(C)(=O)Nc1ccc(C)c(C)c1 (stereo not drawn)	inactive: 19%
Cc1nc2ccc3ccccc3c2o1.O=[N+]([O-])c1cc([N+](=O)[O-])c(O)c([N+](=O)[O-])c1	inactive: 10.6%
CP(=O)(Nc1ccccn1)Oc1ccccc1 (stereo not drawn)	inactive: 2.58%
CP(=O)(Nc1ccccc1F)Oc1ccccc1 (stereo not drawn)	inactive: 7.99%
CN(C)CCOC(=O)C(O)(c1ccccc1)C1CCCCC1 (stereo not drawn)	inactive: -1.99%
CCOP(C)(=S)SCC(=O)NC(C)(CC)C(=O)O (stereo not drawn)	inactive: 10.7%
Cc1ccccc1NP(C)(=O)Nc1ccccc1C	inactive: -3.71%
CP(=O)(Nc1ccc2c(c1)OCCO2)Oc1ccccc1 (stereo not drawn)	inactive: 0.865%
Cc1nc2ccc3ccccc3c2s1.O=[N+]([O-])c1cc([N+](=O)[O-])c(O)c([N+](=O)[O-])c1	inactive: 0.92%
Cc1ccc(C)c(NP(C)(=O)Oc2ccccc2)c1 (stereo not drawn)	inactive: 8.8%
COc1ccccc1OP(C)(=O)Nc1ccc(C)cc1 (stereo not drawn)	inactive: 5.92%
Cc1ccc(NP(C)(=O)Oc2ccccc2)c(C)c1 (stereo not drawn)	inactive: 4.62%
CP(=S)(Nn1cnnc1)Oc1ccccc1 (stereo not drawn)	inactive: -3.48%
CP(=O)(NC(=O)Nc1ccccc1)Oc1ccccc1 (stereo not drawn)	inactive: 3.82%
CCOP(C)(=S)SCC(=O)NC(C)C(=O)O (stereo not drawn)	inactive: -12%
